# According to patent US5559213A, “Polyethylene-protein conjugates” (Hoffmann-La Roche Inc., priority 1995, dated 1996):
# Tested on: CTLL cell
# Assay: CTLL cell proliferation assay (specific activity of rIL-2)
# Type: cell-based
# Protocol: Pegylated rIL-2 was purified from the reaction mixture as described by Katre et al. [Proc. Nat. Acad. Sci., USA, 84:1483, (1987)] using hydrophic exchange chromatography (Bio-Rad; Biogel-phenyl 5-PW). A linear gradient with-decreasing salt from 1.53 to 0.0M (NH4)2 SO4 in 50 mM sodium phosphate pH 7.0 in 30 minutes was used to separate PEG-modified and unmodified rIL-2. Aliquots of the fractions were evaluated by SDS-PAGE and pooled fractions were assayed to determine its specific activity in a CTLL cell proliferation assay by the method described by Gillis et al. [J. Immunology 120:2027, (1978)]. Protein concentrations were determined spectrophotometrically at 280 nm using an extinction coefficient of 0.667 for rIL-2.The-specific activity of the rIL-2 isolated proteins is expressed as units/mg protein and the results are summarized in Table III.
substance,measurement,setting,value
"rIL-2: Recombinant Interleukin-2, unmodified; apparent molecular weight 15 kD by SDS-PAGE",specific activity,"Example 3, Table III: rIL-2 conjugated to PEG with reagent of Example 1, label = apparent molecular weight (kD)",2.0 × 10^7 units/mg
same,specific activity,Example 13: rIL-2 pegylated with reagent of Example 11 (SRU 111.7),2×10^7 units/mg
